# Measurements: publication PMC7717712, “The effects of cardiac drugs on human erythrocyte carbonic anhydrase I and II isozymes” (Journal of Enzyme Inhibition and Medicinal Chemistry, 2020)
# What was measured:
# [1] = molecular target: T1, human carbonic anhydrase II (hCA II) (Homo sapiens, UniProt P00918); test: CO2 hydratase activity assay (Maren method), hCA II; type: biochemical; conditions: enzyme purified from human erythrocytes
# T1 construct: The packed erythrocytes were washed three times with 0.9% NaCl and then were hemolyzed in cold water; from tissue
# [2] = molecular target: T1, human carbonic anhydrase II (hCA II); test: Esterase activity assay (4-nitrophenyl-acetate), hCA II; type: biochemical; conditions: esterase method, 348 nm, 25 °C
smiles,measurement,setting,value
CC(=O)Oc1ccccc1C(=O)O [Acetylsalicylic acid],IC50,[1],246 µM
same,IC50,[2],58.3 µM
